According to paper PMC12460146, “Impact of metabolic enzyme activity variability on dabrafenib disposition” (Frontiers in Pharmacology, 2025):

Tested on: rat liver microsomes (RLM)
Experiment: Drug interaction screening of 48 drugs on dabrafenib metabolism in RLM
Details: inhibitor 100 µM, dabrafenib at RLM Km concentration, hydroxy-dabrafenib formation

With `CCOc1cc(CC(=O)N[C@@H](CC(C)C)c2ccccc2N2CCCCC2)ccc1C(=O)O` [Repaglinide] the “Relative activity (% of control)” value was 100.54% ± 0.05.
